Amino acid sequences for entries named in this document (tags omitted). Residues count along the entry.
UniProt P22303, 32-614: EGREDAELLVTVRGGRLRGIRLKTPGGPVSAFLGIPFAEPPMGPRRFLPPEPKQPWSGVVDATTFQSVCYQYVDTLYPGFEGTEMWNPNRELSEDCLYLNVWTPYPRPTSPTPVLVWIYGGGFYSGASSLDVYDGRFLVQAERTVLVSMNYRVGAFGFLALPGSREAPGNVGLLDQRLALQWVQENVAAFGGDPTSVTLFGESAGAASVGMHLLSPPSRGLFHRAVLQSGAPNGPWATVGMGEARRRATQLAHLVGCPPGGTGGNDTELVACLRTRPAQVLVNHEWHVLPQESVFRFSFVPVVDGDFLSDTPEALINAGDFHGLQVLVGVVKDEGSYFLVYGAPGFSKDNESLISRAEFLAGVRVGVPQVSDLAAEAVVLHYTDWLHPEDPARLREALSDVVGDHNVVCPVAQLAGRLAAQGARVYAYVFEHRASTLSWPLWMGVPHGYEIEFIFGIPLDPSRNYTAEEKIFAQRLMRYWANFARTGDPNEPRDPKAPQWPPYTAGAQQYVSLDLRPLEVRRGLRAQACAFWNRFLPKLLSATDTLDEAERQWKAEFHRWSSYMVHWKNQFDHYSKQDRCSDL
UniProt P06276, 29-602: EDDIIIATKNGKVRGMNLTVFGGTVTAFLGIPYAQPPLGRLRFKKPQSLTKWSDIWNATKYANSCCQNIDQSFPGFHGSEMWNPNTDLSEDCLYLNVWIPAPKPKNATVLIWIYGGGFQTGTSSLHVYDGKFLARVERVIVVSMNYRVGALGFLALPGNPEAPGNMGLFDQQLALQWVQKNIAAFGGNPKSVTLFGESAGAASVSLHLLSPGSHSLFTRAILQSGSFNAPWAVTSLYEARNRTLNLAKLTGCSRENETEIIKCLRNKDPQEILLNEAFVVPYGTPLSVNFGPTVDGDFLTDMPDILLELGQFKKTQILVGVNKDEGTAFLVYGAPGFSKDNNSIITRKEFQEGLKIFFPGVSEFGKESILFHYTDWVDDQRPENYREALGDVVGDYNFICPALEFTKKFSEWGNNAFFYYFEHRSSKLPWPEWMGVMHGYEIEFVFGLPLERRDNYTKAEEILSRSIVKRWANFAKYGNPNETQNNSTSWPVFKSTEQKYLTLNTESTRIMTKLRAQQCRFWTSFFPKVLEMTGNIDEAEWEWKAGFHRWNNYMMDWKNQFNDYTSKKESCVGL

In PMC12296705, “In Vivo and Bioinformatics Evaluation of Nine Traditional Chinese Medicine Compounds Targeting Acetylcholinesterase and Butyrylcholinesterase Enzymes in Alzheimer’s Disease” (Iranian Journal of Pharmaceutical Research : IJPR, 2025):

Experiments:
[1] = molecular target: T1, acetylcholinesterase (AChE) (Homo sapiens, UniProt P22303); format: biochemical; conditions: mean ± SD, n = 3, each in triplicate
T1 construct: purchased bioassay systems, USA IACE-100
Method: (§1) The in vitro AChE and BuChE inhibitory effects and selectivity of nine TCM compounds were evaluated using the QuantiChrom^TM AChE inhibitor screening kit (IACE-100, bioassay systems, USA) for AChE inhibition and the BuChE activity kit (catalog # MBS846801, MyBiosource, CA, USA) for BuChE inhibition. […] The QuantiChrom^TM kit was used to assess the activity of AChE and BuChE by recording enzymatic activity at different concentrations of the test compounds and comparing it to activity without inhibitors, followed by plotting dose-response curves. The experimental data were fitted by nonlinear regression analysis to yield IC50 values. The selectivity of the compounds for AChE relative to BuChE was determined by calculating the Selectivity Index (SI) using the formula BuChE IC50 values are divided by AChE IC50 values to obtain SI.

[2] = molecular target: T2, butyrylcholinesterase (BuChE) (Homo sapiens, UniProt P06276); format: biochemical; conditions: read-out: IC50 BuChE; mean ± SD, n = 3, each in triplicate
T2 construct: purchased MyBiosource, CA, and USA MBS846801
Method: as §1

Asiaticoside gave an IC50 [1] of 71.1 ± 3.54 nM and an IC50 [2] of 83.3 ± 3.14 nM.
